# Earlier results, collected in US20120035103A1, “METHOD FOR ADMINISTRATION OF INSULIN AND PHARMACEUTICAL COMPOSITION THEREOF” (priority 2010, published 2012).
# Details: pulmonary route, without absorption-enhancing agent
substance,measurement,value
insulin,Bioavailability of the insulin administered,approximately 10%
